Measured values from patent US9642920B2, “Therapeutic agent delivery system and method” (Case Western Reserve University, priority 2009, dated 2017).

Test system: U-87 MG cells
Conditions: mouse, in vivo

dextran
DOX extracted from polymer removed from euthanized mice: no traceable DOX
